# Patent US10501494B2, “Uses of peptides to treat brain injury and disease” (priority 2013, dated 2019)
# Sequences of proteins named here, by UniProt entry; tags and fusion partners are left off.
# UniProt P51681, whole entry: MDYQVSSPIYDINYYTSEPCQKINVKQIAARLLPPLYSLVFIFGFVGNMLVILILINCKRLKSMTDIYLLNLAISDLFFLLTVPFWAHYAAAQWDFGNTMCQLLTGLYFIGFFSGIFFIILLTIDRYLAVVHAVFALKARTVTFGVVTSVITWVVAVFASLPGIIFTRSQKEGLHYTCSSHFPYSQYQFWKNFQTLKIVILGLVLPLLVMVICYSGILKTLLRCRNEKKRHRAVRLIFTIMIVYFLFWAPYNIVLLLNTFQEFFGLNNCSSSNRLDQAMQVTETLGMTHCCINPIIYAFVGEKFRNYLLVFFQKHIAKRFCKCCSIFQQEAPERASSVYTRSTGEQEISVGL
# Target: MIP-1β (CCL4)/CCR5 (Homo sapiens, UniProt P51681)
# Settings: low (sub-pM) concentrations, MIP-1β 50 ng/mL, monocytes treated with GM-CSF for 48 hours
smiles,measurement,value
"C[C@@H](N)C(=O)N[C@@H](CO)C(=O)N[C@H](C(=O)N[C@H](C(=O)N[C@H](C(=O)N[C@@H](CC(N)=O)C(=O)N[C@@H](Cc1ccc(O)cc1)C(=O)N[C@H](C(N)=O)[C@@H](C)O)[C@@H](C)O)[C@@H](C)O)[C@@H](C)O [RAP-101, D-Ala1-STTTNYT-NH2]",potency to block CCR5-mediated human monocyte chemotaxis,comparable potency
